In this data set the test system is blood-brain barrier. Conditions: right brain (sonicated target area), 1 mmol/kg i.v.

Like-named read-outs stand apart in the source and are kept apart here.

As for `CNC(=O)CN(CCN(CCN(CC(=O)[O-])CC(=O)NC)CC(=O)[O-])CC(=O)[O-].[Gd+3]` [Gd-DTPA-BMA], the “permeation constant Ktrans” value (contrast agent injected t=0 min after ultrasound) was 0.06 min⁻¹, the “permeation constant Ktrans” value (t=15 min after ultrasound) worked out at 0.03 min⁻¹, the “permeation constant Ktrans” value (t=25 min after ultrasound) stood at 0.02 min⁻¹ and the “permeation constant Ktrans” value (t=120 min after ultrasound) was 0.01 min⁻¹.

The values are drawn from patent publication US9291692B2, “Blood-brain barrier recovery curve assessment method and system” (NATIONAL YANG-MING UNIVERSITY, priority 2013, dated 2016).
